Data on 23 molecules can be found in PubChem BioAssay AID624330 (Southern Research Specialized Biocontainment Screening …, 2012).

Sequences of proteins named here, by UniProt entry; tags and fusion partners are left off.
UniProt Q9H0H5, whole entry: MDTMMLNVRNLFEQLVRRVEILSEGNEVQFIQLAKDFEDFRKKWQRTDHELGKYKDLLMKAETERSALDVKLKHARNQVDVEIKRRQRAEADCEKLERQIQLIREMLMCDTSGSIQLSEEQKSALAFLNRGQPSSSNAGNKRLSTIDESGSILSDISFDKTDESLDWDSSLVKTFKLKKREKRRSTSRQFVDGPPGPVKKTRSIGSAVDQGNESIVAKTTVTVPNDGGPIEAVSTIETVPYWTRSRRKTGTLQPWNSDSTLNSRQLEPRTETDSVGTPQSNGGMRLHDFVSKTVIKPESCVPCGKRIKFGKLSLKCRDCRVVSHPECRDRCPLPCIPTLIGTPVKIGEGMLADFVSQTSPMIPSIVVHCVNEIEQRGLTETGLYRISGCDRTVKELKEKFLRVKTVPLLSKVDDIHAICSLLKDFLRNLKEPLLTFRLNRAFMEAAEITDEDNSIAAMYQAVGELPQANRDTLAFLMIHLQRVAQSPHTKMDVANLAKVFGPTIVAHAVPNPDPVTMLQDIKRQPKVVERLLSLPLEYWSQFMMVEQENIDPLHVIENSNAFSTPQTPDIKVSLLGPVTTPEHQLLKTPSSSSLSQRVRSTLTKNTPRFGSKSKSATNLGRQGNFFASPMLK

Structures are written as SMILES. Some of the results follow. Results with a measured potency or affinity are listed apart. Some tests of the compounds listed are not included; inactive here does not mean inactive elsewhere. Activity calls are given as the source filed them.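 Rule for the calls: active = first-screen hits whose inhibition reached a set limit at any dose in the follow-up dose series; inconclusive = inhibition above the set first-screen limit but never retested; inactive = the rest.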

In this test the target is Rac GTPase-activating protein 1 (Homo sapiens) (UniProt Q9H0H5). As to the kind of experiment: blockers of MgcRacGAP-driven Rac1 GTP hydrolysis – biochemical, ADP Hunter fluorescence, primary and confirmatory, confirmation (AID 624330).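 Note: fluorescence reports GDP produced by GAP-driven GTP hydrolysis.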 Particulars: MgcRacGAP-stimulated Rac1 GTP hydrolysis, at 30 µM, stronger effect = higher value, GST-tagged Rac1 F28L mutant substrate.
In the case of `CN(C)c1cccc(C(=O)NCC2(N(C)C)CCCCC2)c1`, the inhibition was inactive: 12.7%.
The same measure for `O=C(OCCN1CCCC1)C(O)(c1ccccc1)c1ccccc1`: inactive: -5.1%.
For `COc1ccc(Br)c(C(=O)NCC2(N3CCCCC3)CCCCC2)c1` the value was inactive: -3.45%; for `C=C(C)C#CC(O)(C(=O)OC1CCN(C)CC1)c1ccccc1` (stereo not drawn), inactive: -3.72%; for `O=C(OC1CN2CCC1CC2)C(CO)(c1ccccc1)c1ccccc1` (stereo not drawn), inactive: 8%.
Turning to `O=C(NCC1(N2CCCCC2)CCCCC1)c1cccc(Cl)c1`, the inhibition was inactive: 3.78%.
The same measure for `COc1cccc(C(=O)NCC2(N3CCCCC3)CCCCC2)c1`: inactive: 0.1%.
The same measure for `COc1cc(C(=O)NCC2(N(C)C)CCCCC2)c([N+](=O)[O-])cc1OC`: inactive: 6.34%; for `CN(C)C1(CNC(=O)c2ccc(Br)cc2)CCCCC1`: inactive: 9.13%.
For `CCN1CCCC(OC(=O)C2(O)c3ccccc3C=Cc3ccccc32)C1` (stereo not drawn) the value was inactive: 6.3%; for `Cc1cc(C(=O)NCC2(N3CCCCC3)CCCCC2)ccc1[N+](=O)[O-]`, inactive: 3.27%; for `O=C(NCC1(N2CCCCC2)CCCCC1)c1cccc(Br)c1`, inactive: 5.4%.
In the case of `COc1ccc(C(=O)NCC2(N(C)C)CCCCC2)cc1`, the inhibition was inactive: 6.15%.
On to `C=CCN1CCN(CCOC(=O)C(O)(c2ccccc2)c2ccccc2)CC1`, for which the inhibition was inactive: -25.7%.
As to `O=C(NCC1(N2CCCCC2)CCCCC1)c1cc(F)c(F)cc1Cl`, the inhibition was inactive: -0.2%.
`Cc1ccccc1C(=O)NCC1(N2CCCCC2)CCCCC1`: the inhibition was inactive: 14.5%.
As to `CN(C)C1CCCC1OC(=O)C(O)(c1ccccc1)c1ccccc1` (stereo not drawn), the inhibition was inactive: 3.13%.
For `Cc1ccc(C(=O)NCC2(N3CCCCC3)CCCCC2)cc1` the value was inactive: 5.17%; for `CC(C)N1C(=O)CC2(CCN(CCOC(=O)C(O)(c3ccccc3)c3ccccc3)CC2)C1=O`, inactive: 3.66%; for `CCN(CC)CC(C)C(C)OC(=O)C(O)(c1ccccc1)c1ccccc1` (stereo not drawn), inactive: 2.76%.
In the case of `COc1cc(SC)ccc1C(=O)NCC1(N(C)C)CCCCC1`, the inhibition is inactive: 9.03%.
For `CN1[C@@H]2CC[C@H]1CC(OC(=O)C(O)(c1ccccc1)c1ccccc1)C2` (stereo partly drawn) the value was inactive: 7.83%.
For `O=C(NCC1(N2CCCCC2)CCCCC1)c1cc([N+](=O)[O-])ccc1Cl` the value was inactive: -8.29%.
